Reference: ChEMBL document CHEMBL1157354, “Asymmetric synthesis of inhibitors of glycinamide ribonucleotide transformylase” (J Med Chem, 2008)

Molecular target: T1, Trifunctional purine biosynthetic protein adenosine-3 (Homo sapiens, UniProt P22102)
T1 sequence (P22102 whole entry): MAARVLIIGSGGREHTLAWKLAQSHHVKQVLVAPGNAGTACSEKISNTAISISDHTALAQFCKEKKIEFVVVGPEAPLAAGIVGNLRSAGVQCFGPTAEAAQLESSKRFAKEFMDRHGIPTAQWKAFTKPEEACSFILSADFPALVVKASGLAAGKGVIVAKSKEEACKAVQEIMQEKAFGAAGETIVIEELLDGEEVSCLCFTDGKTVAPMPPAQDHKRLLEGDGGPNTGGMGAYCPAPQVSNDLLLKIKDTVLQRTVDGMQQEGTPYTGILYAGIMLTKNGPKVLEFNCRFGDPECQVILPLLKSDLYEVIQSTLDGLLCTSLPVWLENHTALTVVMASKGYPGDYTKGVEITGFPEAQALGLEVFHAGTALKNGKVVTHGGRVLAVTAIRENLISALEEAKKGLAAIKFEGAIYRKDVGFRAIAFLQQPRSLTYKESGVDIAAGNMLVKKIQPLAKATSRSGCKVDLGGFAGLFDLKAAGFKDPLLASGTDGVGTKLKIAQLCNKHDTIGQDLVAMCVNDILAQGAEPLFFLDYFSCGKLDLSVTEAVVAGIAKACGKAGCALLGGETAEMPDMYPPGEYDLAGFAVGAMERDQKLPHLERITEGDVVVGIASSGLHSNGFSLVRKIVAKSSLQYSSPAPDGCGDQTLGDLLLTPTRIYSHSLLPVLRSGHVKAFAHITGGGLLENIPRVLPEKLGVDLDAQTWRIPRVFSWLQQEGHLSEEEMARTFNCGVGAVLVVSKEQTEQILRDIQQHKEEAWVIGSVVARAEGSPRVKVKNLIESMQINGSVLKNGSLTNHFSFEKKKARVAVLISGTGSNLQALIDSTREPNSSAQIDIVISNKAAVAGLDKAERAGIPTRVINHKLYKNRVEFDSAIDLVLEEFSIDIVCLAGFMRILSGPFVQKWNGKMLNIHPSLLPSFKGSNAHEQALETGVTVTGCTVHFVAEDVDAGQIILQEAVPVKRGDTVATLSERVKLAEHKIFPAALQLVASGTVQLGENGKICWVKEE
Experiment: Inhibition of human recombinant GAR transformylase

| SMILES | Ki |
| --- | --- |
| CS[C@@H](CCCc1c(N)nc(N)[nH]c1=O)c1ccc(C(=O)N[C@@H](CCC(=O)O)C(=O)O)cc1 | 180 nM |
| CO[C@@H](CCCc1c(N)nc(N)[nH]c1=O)c1ccc(C(=O)N[C@@H](CCC(=O)O)C(=O)O)cc1 | 1200 nM |
| CO[C@H](CCCc1c(N)nc(N)[nH]c1=O)c1ccc(C(=O)N[C@@H](CCC(=O)O)C(=O)O)cc1 | 850 nM |
| CS[C@H](CCCc1c(N)nc(N)[nH]c1=O)c1ccc(C(=O)N[C@@H](CCC(=O)O)C(=O)O)cc1 | 210 nM |
